Assay results published in PubChem BioAssay AID1053188 (Broad Institute, 2014).
The list shows a part of the results, in another mix than the full data. The source made the active and inactive calls.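 The calls were made as follows: active = mean inhibition of at least 50% with a set share of replicates also reaching that level; inconclusive = no clear call, values can overlap the other calls; inactive = the rest.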

Experiment: inhibitors of CD40-induced NF-kB signaling, primary screen, BL2 cells, luciferase reporter, single point (AID 1053188);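 also: 0% = neutral control wells and 100% = IKK inhibitor VII at 50 µM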
Settings: CD40L-induced, 4 h, at 10 µM, hits give high values

Row | Structure (SMILES) | inhibition
1 | CC(C)c1ccc(C(=O)NCC2(N3CCOCC3)CCCCC2)cc1 | inactive: -17%
2 | CN1CCN(CCOC(=O)C(O)(c2ccccc2)c2ccccc2)CC1 | inactive: 5.78%
3 | CSc1ccc(C(=O)NCC2(N3CCOCC3)CCCCC2)cc1 | inactive: -1.79%
4 | O=C(NCC1(N2CCCCC2)CCCCC1)c1cccc([N+](=O)[O-])c1 | inactive: 2.36%
5 | Cc1ccc(C(=O)NCC2(N(C)C)CCCCC2)o1 | inactive: 9.91%
6 | O=C(NCC1(N2CCOCC2)CCCCC1)c1cc(F)c(F)cc1Cl | inactive: 0.761%
7 | CCOC(=O)N1CCC(Nc2ccc(OC)cc2)CC1 | inactive: -8.63%
8 | O=C(OC1CN2CCC1CC2)C1c2ccccc2Oc2ccccc21 (stereo unspecified) | inactive: 7.6%
9 | O=C(NCC1(N2CCCCC2)CCCCC1)c1ccc(=O)[nH]c1 | inactive: 11.9%
10 | O=C(NCC1(N2CCCCC2)CCCCC1)c1cccs1 | inactive: 14.7%
11 | CCCCOc1ccc(C(=O)NCC2(N3CCOCC3)CCCCC2)cc1 | inactive: -1.03%
12 | O=P1(N(CCCl)CCCl)SCCCS1 | inactive: 8.77%
13 | COc1ccc(NC2CCN(CCc3ccccc3)CC2)c(OC)c1 | inactive: 15%
14 | O=C(NCC1(N2CCCCC2)CCCCC1)c1ccco1 | inactive: -1.76%
15 | Cn1c(=O)[nH]cc(N(CCCl)CCCl)c1=O | inactive: 0.15%
16 | Cc1ccccc1NC1(C#N)CCN(Cc2ccccc2)CC1 | inactive: 5.43%
17 | O=C(O)C1(Nc2ccccc2)CCN(Cc2ccccc2)CC1 | inactive: 1.49%
18 | CCOc1ncccc1C(=O)NCC1(N2CCOCC2)CCCCC1 | inactive: 3.73%
19 | O=C(OC1CN2CCC1CC2)C1c2ccccc2C=Cc2ccccc21 (stereo unspecified) | inactive: 24.7%
20 | O=C(NCC1(N2CCOCC2)CCCCC1)c1cc(Br)ccc1Cl | inactive: 7.34%
21 | C/C(N)=N\P(=O)(Oc1ccccc1)Oc1ccccc1 | inactive: -2.83%
